Laboratory results taken from BindingDB's records for US10793556.

Protein sequences, listed by entry. Tags and fused reporters are not part of them.
UniProt P35372, whole entry: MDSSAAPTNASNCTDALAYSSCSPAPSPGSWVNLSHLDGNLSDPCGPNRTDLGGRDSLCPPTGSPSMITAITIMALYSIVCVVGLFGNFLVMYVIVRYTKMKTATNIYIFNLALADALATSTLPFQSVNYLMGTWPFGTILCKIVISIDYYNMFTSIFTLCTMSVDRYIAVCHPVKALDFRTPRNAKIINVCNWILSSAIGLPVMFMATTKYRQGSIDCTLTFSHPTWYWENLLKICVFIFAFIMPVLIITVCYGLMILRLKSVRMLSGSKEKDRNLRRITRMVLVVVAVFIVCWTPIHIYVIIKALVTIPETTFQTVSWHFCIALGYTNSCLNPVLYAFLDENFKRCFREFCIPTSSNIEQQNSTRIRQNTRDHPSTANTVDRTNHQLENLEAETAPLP
UniProt P41146, whole entry: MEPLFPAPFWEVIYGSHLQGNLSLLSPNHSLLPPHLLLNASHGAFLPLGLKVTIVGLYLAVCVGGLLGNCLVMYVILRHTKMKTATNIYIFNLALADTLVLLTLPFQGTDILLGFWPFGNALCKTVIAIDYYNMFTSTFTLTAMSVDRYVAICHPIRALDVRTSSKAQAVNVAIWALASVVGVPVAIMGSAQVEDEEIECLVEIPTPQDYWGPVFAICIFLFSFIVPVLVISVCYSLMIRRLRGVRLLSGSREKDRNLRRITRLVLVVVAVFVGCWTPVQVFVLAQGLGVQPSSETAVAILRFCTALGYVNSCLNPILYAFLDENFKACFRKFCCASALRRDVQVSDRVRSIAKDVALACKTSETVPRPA

Experiments:
Mu-type opioid receptor = Mu-type opioid receptor (Homo sapiens, UniProt P35372); experiment: ASSAY_NAME: Receptor Binding Assay DESCRIPTION: The hMOP receptor binding assay was performed as homogeneous SPA-assay (scintillation proximity assay) using the assay buffer 50 mM TRIS-HCl (pH 7.4) supplemented with […] bovine serum albumin (Sigma-Aldrich Co. St. Louis. Mo.). The final assay volume (250 ul/well) included 1 nM of [N-allyl-2.3-3H]naloxone as ligand (PerkinElmer Life Sciences
Nociceptin receptor = Nociceptin receptor (Homo sapiens, UniProt P41146); experiment: ASSAY_NAME: Receptor Binding Assay DESCRIPTION: The hNOP receptor binding assay was performed as homogeneous SPA-assay (scintillation proximity assay) using the assay buffer 50 mM TRIS-HCl. 10 mM MgCl2. 1 mM EDTA (pH 7.4). The final assay volume (250 μl/well) included 0.5 nM of [leucyl-3H]nociceptin as ligand (PerkinElmer Life Sciences. Inc. Boston. Mass. USA). and either test compound in dil

CN(C)[C@]1(c2cccc(F)c2)CC[C@]2(CC1)CN(CC1(O)CCS(=O)(=O)CC1)C(=O)N2CC1(O)CCC1
pKi (Mu-type opioid receptor): 5.36 | pKi (Nociceptin receptor): 6.94

pKi: −log10 of the molar value.
